The test addresses T1, Phosphomannomutase 2 (Homo sapiens, UniProt O15305).
T1 sequence (O15305 whole entry): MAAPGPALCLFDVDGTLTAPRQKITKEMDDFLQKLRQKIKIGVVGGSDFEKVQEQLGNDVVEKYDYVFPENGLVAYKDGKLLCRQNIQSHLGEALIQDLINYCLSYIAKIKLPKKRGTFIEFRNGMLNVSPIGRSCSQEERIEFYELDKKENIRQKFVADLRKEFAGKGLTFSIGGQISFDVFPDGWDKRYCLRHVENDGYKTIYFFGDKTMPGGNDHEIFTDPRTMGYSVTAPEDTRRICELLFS
The experiment in a line: Inhibition of human purified PMM2.

Broadly, the IC50 is the concentration that inhibits the measured activity by half. Low values mean inhibition by little substance, high ones a need for much substance. `O=c1c2ccccc2sn1-c1ccccc1` yielded an IC50 above 20 µM.
